Results from the supplement of paper PMC11403291.

Sequences of proteins named here, by UniProt entry; tags and fusion partners are left off. A change or cut given only in a name is not applied to a line headed by its entry.
UniProt P48730: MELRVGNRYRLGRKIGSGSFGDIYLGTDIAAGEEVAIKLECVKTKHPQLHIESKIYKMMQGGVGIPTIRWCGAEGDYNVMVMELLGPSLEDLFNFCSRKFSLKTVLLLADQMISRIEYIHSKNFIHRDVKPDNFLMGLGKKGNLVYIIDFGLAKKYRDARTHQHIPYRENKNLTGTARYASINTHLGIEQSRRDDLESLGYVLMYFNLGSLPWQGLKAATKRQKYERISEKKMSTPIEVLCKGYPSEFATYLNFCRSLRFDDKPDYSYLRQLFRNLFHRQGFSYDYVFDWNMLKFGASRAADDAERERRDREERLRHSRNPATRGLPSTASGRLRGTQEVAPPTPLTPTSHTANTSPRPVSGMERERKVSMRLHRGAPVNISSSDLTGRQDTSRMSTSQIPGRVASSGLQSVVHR
UniProt Q16539, whole entry: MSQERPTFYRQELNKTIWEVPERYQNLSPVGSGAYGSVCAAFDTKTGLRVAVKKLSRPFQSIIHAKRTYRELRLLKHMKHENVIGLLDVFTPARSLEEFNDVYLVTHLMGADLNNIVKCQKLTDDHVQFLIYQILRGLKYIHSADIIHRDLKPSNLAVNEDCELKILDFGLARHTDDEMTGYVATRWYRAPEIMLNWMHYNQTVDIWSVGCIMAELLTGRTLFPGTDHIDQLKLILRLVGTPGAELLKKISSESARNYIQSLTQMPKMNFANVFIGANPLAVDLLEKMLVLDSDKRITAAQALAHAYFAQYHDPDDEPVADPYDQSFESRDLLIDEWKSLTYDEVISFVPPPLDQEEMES

Experiments:
Assay in all cases: apparent dissociation constant pKd app (kinobead competition) (-log10(M)); higher = stronger binding
[1] = biological target: T1, PRKG1 (UniProt Q13976)
T1 sequence (whole entry): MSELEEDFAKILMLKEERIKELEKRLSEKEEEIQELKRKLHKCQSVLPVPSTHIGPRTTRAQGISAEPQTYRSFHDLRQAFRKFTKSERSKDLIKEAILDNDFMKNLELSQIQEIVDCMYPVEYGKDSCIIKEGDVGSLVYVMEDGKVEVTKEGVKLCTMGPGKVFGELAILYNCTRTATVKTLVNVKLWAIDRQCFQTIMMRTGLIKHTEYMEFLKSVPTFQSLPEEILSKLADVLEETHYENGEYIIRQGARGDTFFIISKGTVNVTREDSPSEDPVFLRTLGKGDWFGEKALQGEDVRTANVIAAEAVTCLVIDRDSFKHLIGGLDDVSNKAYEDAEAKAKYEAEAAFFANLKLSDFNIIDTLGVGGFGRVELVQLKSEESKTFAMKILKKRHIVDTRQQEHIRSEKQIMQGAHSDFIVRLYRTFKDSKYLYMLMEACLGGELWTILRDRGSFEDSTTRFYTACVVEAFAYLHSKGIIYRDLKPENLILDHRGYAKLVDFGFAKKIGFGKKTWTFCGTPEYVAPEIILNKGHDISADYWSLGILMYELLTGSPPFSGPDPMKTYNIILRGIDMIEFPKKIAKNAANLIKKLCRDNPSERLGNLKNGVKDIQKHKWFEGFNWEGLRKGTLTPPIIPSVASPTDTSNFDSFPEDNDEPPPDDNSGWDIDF

[2] = biological target: T2, NLK (UniProt Q9UBE8)
T2 sequence (whole entry): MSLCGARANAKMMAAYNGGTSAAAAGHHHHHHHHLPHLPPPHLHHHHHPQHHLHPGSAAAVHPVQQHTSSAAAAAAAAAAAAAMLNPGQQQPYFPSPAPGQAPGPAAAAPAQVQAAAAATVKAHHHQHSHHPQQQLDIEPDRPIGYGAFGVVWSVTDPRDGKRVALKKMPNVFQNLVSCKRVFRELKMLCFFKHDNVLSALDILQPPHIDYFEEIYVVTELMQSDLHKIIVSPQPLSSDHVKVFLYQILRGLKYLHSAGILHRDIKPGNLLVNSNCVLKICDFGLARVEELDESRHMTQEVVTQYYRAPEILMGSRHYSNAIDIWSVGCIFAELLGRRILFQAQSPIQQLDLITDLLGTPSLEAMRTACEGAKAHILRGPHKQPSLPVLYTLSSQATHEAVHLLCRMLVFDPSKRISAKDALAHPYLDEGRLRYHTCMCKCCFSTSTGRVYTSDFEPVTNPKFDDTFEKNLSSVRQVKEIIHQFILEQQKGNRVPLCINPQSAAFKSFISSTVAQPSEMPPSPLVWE

[3] = biological target: CSNK1D (UniProt P48730)
[4] = biological target: MAPK14 (UniProt Q16539)
[5] = biological target: T3, MARK4 (UniProt Q96L34)
T3 sequence (whole entry): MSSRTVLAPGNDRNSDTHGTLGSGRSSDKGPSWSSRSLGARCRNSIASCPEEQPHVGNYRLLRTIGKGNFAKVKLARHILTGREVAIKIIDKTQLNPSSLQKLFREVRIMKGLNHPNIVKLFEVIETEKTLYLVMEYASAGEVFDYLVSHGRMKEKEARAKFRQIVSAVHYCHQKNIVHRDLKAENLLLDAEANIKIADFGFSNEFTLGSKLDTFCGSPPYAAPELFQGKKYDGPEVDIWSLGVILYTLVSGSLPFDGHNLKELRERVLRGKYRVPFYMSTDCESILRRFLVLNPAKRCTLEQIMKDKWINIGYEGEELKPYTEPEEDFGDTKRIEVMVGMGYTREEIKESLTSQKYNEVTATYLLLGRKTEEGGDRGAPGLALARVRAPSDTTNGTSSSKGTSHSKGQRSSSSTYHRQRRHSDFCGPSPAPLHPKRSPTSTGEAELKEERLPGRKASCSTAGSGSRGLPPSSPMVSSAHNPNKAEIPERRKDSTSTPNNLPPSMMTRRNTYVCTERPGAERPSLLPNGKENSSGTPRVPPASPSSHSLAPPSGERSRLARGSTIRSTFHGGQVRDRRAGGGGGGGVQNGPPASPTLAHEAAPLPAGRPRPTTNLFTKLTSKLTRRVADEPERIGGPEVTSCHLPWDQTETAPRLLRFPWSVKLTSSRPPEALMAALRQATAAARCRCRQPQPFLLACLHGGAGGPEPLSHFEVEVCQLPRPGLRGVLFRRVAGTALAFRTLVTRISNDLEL

[6] = biological target: T4, MAP2K6 (UniProt P52564)
T4 sequence (whole entry): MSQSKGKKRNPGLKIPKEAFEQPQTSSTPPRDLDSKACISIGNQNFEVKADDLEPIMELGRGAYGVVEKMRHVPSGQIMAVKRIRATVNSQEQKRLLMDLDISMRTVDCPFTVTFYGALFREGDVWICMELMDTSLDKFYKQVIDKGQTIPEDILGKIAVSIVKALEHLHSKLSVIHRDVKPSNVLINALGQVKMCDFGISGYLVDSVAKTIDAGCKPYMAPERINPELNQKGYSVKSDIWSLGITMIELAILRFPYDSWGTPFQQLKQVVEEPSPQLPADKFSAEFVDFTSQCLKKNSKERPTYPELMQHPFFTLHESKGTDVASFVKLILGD

apparent dissociation constant pKd app (-log10) [1] | apparent dissociation constant pKd app (-log10) [2] | apparent dissociation constant pKd app (-log10) [3] | apparent dissociation constant pKd app (-log10) [4] | apparent dissociation constant pKd app (-log10) [5] | apparent dissociation constant pKd app (-log10) [6] | SMILES
< 4.6 | < 4.6 | < 4.6 | < 4.7 | < 4.6 | < 4.5 | NC(=O)c1cccc2cn(-c3ccc([C@@H]4CCCNC4)cc3)nc12 [Niraparib]
< 4.6 | < 4.6 | < 4.6 | < 4.7 | < 4.6 | < 4.5 | O=C(c1cc(Cc2n[nH]c(=O)c3ccccc23)ccc1F)N1CCN(C(=O)C2CC2)CC1 [Olaparib]
< 4.6 | < 4.6 | < 4.6 | < 4.7 | < 4.6 | < 4.5 | Cn1ncnc1[C@H]1c2n[nH]c(=O)c3cc(F)cc(c23)N[C@@H]1c1ccc(F)cc1 [Talazoparib]
